Measurements taken from US6653338B2, “FSH mimetics for the treatment of infertility” (Applied Research Systems ARS Holding N.A., priority 1998, dated 2003).

Target: T1, recombinant FSH receptor stably transfected and expressed in Chinese Hamster Ovary cells (Homo sapiens, UniProt P23945)
T1 construct: expressed in transfected cells; host or cells: Chinese Hamster Ovary (CHO) cells, stably transfected, with CRE-luciferase reporter
T1 sequence (P23945 18-695): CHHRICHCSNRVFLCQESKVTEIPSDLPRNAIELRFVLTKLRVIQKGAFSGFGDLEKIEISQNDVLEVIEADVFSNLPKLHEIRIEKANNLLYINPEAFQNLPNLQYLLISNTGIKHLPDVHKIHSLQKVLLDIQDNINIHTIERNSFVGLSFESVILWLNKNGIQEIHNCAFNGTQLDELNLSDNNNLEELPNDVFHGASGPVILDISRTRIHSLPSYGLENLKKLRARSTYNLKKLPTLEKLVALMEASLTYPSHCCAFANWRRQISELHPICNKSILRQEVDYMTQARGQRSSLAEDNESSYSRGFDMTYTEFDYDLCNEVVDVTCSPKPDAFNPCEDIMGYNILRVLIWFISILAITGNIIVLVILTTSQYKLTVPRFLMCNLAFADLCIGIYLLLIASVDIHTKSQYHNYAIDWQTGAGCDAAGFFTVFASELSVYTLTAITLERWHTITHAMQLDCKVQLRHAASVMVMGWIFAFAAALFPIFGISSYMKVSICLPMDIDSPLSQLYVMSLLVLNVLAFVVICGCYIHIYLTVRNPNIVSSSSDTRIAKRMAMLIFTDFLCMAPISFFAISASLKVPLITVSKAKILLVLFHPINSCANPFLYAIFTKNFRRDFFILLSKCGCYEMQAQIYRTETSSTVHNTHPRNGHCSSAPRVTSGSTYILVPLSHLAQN
Test: FSH assay: CHO luciferase FSHR (CRE-luciferase reporter, LDR curves)
Assay type: cell-based
Conditions: FIG. 6, from the graph; duplicate samples; luciferase luminescence in CHO FSHR cells
Procedure: All compounds were stored in 96-well deepwell plates in DMSO at a nominal concentration of 10 mM (assuming perfect synthesis and yields). Compounds were screened for agonist activity at the FSH receptor using the recombinant FSH receptor stably transfected and expressed in Chinese Hamster Ovary cells (CHO cells) essentially as described in the work by Kelton, et al. (Molecular and Cellular Endocrinology, 1992, 89, 141-151). […] An agonist at the FSH receptor increases cAMP in the cell, which results in activation of CREB (cAMP response element binding protein). […] The amount of luciferase expressed was measured by quantitating the luminescence produced by the enzyme using a TopCount scintillation/luminescence counter running in single photon counting mode. […] Luminescence should be saturable at high concentrations of the compound.
The compounds of the invention, in deepwell plates (Master plates) were loaded on the robotic deck along with the appropriate number of assay plates and daughter plates. […] 100 μl of Luclite (prepared as described by the manufacturer) was added to each well and the plate was shaken gently for 40 s prior to placement in the Topcount plate reader. After allowing 3.5 min for the plate to dark-adapt within the machine, the amount of luminescence generated was quantitated using Single Photon Counting mode. […]

EC50: 1.47 pM
Substance: FSH: pituitary-derived heterodimeric glycoprotein hormone, used as a positive control
